This test deals with T1, human recombinant renin (Homo sapiens, UniProt P00797).
T1 construct: purchased Cayman Chemical; host or cells: HEK cells
The experiment in a line: Renin inhibitory activity assay (fluorometric). The note with it: Table 1; peptide concentration not given. Type of test: biochemical. How it is done: Renin inhibitory activity assays were carried out on a Shimadzu RF 1501 spectrofluorometer equipped with thermostated cell holder according to the method of Wang, Chung, Holzman, & Krafft (1993) with some modifications (FIG. 5 and Table 1). The following instrumental parameters were used: excitation wavelength, 340 nm; emission wavelength, 490 nm; excitation and emission bandwidth, 10 nm. A standard 2 mL, 1 cm pathlength cuvettes containing 1 mL of buffer (or 1 mL varied peptide concentrations) and 1 mL of 2.5 μM substrate, was equilibrated at 37° C. for 5 min to gain thermal equilibrium. A 15 μL of renin (0.4 μg renin) was then added to the cuvette to initiate the reaction. The time dependent increase of fluorescence intensity was monitored for 5 min. The initial reaction velocity, expressed in arbitrary fluorescence units per minute (FU/min), was calculated by least-squares analysis of the initial phase of the reaction. The renin inhibiting activity of the peptide fractions and the individual peptides within are described in Table 1.
Renin inhibiting assay was modified from the fluorometric assay developed for renin activity measurement (FIG. 5). […] The Michaelis-Menten constant (Km) in our study is 3.8 μM for human recombinant renin in the absence of peptide fractions. This value is close to the reported KM of 3.6 μM using the same source of renin and substrate under similar assay conditions (Holzman et al 1991). However, Km of human recombinant renin was also reported to be 1.62 μM (Toshihisa et al., 1992), or 1.25 μM in purified human renal renin acting on pure human plasma angiotensingen at pH 5.7 (Cumin et al., 1987), 1.54 μM at pH 6.5 (Slater and Strout 1981). The Km value for the reaction between renin and substrate also depends on pH, ionic strength, the medium and the assay procedure used (Poulsen et al., 1976). The Michaelis-Menten constants were increased to 6.3 and 6.1 μM, respectively in the presence of peptide fractions of T4 and T5, indicating decreased binding ability between renin and substrate because of the presence of competitive peptide inhibitors.
Turning to “SEQ ID NO. 28: peptide identified within the bioactive fractions of yellow pea protein hydrolysate (LW; listed as Pisum sativum)”, the “RENIN INHIBITION %” value is 37.15%. Turning to “SEQ ID NO. 11: peptide identified within the bioactive fractions of yellow pea protein hydrolysate (FK; listed as Pisum sativum)”, the “RENIN INHIBITION %” value was found to be 8.92%. On to “SEQ ID NO. 3: peptide identified within the bioactive fractions of yellow pea protein hydrolysate (EF; listed as Pisum sativum)”, for which the “RENIN INHIBITION %” value was 22.36%. Under “SEQ ID NO. 27: peptide identified within the bioactive fractions of yellow pea protein hydrolysate (IW; listed as Pisum sativum)” stands 69.18%.

For the substance “SEQ ID NO. 9: peptide identified within the bioactive fractions of yellow pea protein hydrolysate (FT; listed as Pisum sativum)”, the “RENIN INHIBITION %” value was determined as 20.40%. Under “SEQ ID NO. 1: peptide identified within the bioactive fractions of yellow pea protein hydrolysate (IR; listed as Pisum sativum)” stands 49.11%; under “SEQ ID NO. 2: peptide identified within the bioactive fractions of yellow pea protein hydrolysate (KF; listed as Pisum sativum)”, 28.78%; under “SEQ ID NO. 5: peptide identified within the bioactive fractions of yellow pea protein hydrolysate (NR; listed as Pisum sativum)”, 25.36%. Consider “SEQ ID NO. 8: peptide identified within the bioactive fractions of yellow pea protein hydrolysate (YR; listed as Pisum sativum)”, for which the “RENIN INHIBITION %” value is on record as 15.13%.

For the substance “SEQ ID NO. 10: peptide identified within the bioactive fractions of yellow pea protein hydrolysate (RF; listed as Pisum sativum)”, the “RENIN INHIBITION %” value turned out to be 6.35%.

On to “SEQ ID NO. 12: peptide identified within the bioactive fractions of yellow pea protein hydrolysate (FQ; listed as Pisum sativum)”, for which the “RENIN INHIBITION %” value is given as 8.64%.

(Values after US8815806B2, “Yellow pea seed protein-derived peptides” (University of Manitoba, priority 2009, dated 2014).)
